# Antibody variant affinities, Ab-14 light chain, assay B

Antigen: PDVDLGDISGINAS, a 14-residue peptide of the SARS-CoV-2 spike HR2 region.

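Phage display of a naive human antibody library on the peptide gave the parent. These sequences belong to a second round, designed from the earlier measurements on random variants of the parent. Several design methods are mixed in this list. AlphaSeq pools MATa yeast showing the antibodies with MATalpha yeast showing the peptide. After mating in shaken culture at 30 °C for 16 h, diploids were selected and their barcode pairs sequenced. Each replicate has its own calibration line, from reference interactions of the BCL2 family. Mating was done six times.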

Each scFv is VH, the linker GGGGSGGGGSGGGGS, VL, as in the parent Ab-14, and differs from it in the CDRs of the light chain only.
VH: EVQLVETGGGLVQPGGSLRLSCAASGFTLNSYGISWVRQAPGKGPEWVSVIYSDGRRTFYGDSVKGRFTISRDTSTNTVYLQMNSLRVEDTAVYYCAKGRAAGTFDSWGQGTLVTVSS
VL: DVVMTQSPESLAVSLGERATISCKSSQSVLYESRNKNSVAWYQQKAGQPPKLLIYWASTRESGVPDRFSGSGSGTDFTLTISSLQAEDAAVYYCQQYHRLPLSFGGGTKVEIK

The parent's light chain CDRs are KSSQSVLYESRNKNSVA, WASTRES, QQYHRLPLS; each variant's own CDRs replace them letter for letter. Affinities are written as log10 Kd with Kd in nM; a lower number is a better binder. A mean of the replicates is given; it leaves out those without a signal. "nd" means that the variant was in the library but no mating with the target was seen in any replicate; the authors take this as a sign of poor binding, and no number exists. Background: pairings of all light chain designs with three empty control strains gave a value in 4% of cases (median 2.64, 5th percentile 1.59). Values in that range, when seen in few replicates, are hard to tell from nonspecific mating.

Variant KSSQSVLYESRNTNSVA | WASTREK | QQYHRLPLS showed 2.30 (6 of 6 replicates).
Variant KIAATVLYESGNANSVA | QNSTRES | QQYHRLPLS showed nd (0 of 6 replicates).
Variant KIFQSVLYESRQKNSVA | NASDRMS | QQYHRLPLS showed 0.29 (6 of 6 replicates).
Variant HMSAVTMMGMRHRNSVA | QMTMREN | QQYDRLPLA showed 1.28 (6 of 6 replicates).
Variant HLSLPWQLGHPSTNAVA | NMDVLMT | QQYSRLPLS showed -0.07 (2 of 6 replicates).
Variant KLSQMYEYESRWPNSVA | HASTREL | QQYHRLPLS showed 0.06 (2 of 6 replicates).
Variant KFSQSVLYESRLKNGVA | NASTRES | QQYHRLPLS showed 0.12 (6 of 6 replicates).
Variant NVDISANVGYNHKAAVA | EHDERVG | QQYYRLPLA showed 0.22 (6 of 6 replicates).
Variant HMSMLTLGGMRMRNSVA | QMTTREN | QQYDRLPLA showed nd (0 of 6 replicates).
Variant KMSQSEDYEDRNCNAVA | NASQREE | QQYHRLPLS showed 0.23 (6 of 6 replicates).
Variant KSSDSVKFESRNKNSVA | DASTRES | QQYHRLPLS showed 0.30 (6 of 6 replicates).
Variant SSSQSVLDESTNKNSVA | WAVTRES | QQYHRLPLS showed 1.74 (6 of 6 replicates).
Variant KSEQHMLYFSRNKNSVA | DASTRES | QQYHRSPLS showed 2.90 (1 of 6 replicates).
Variant KVGEMMAFLSSNRNNVA | DNSTRGS | QQYHRLPLS showed 1.86 (3 of 6 replicates).
Variant MVNGIMDHLSKNTNNVA | ETTTREK | QQYDRLPLV showed 0.96 (6 of 6 replicates).
Variant KLSQSELYESRNKNSVA | DASQRES | QQYHRLPLS showed -0.44 (6 of 6 replicates).
Variant RLAMGHDNYMHEGNHVA | EVSCKAT | QQYAHLPLV showed 2.01 (1 of 6 replicates).
Variant TIAQSMLYLSNLKNSIA | QAETREE | QQYHRLPIS showed 0.50 (6 of 6 replicates).
Variant KISQSELEESRNKNSVA | WASVREA | QQYHRLPLS showed -0.08 (6 of 6 replicates).
Variant KLQQSVPYESRNKNSVA | DASTRCS | QQYHRLPLS showed 0.12 (6 of 6 replicates).
Variant QIYQAMHTLMQNKDNVA | DVTNRTK | QQYFRLPLS showed 0.22 (6 of 6 replicates).
Variant KVWPSELGLERNKMSVA | QASTRES | QQYHRLPLS showed 0.14 (6 of 6 replicates).
Variant KILQEIENQTYNRNSVA | HSTTRED | QSYHRLPLS showed 1.20 (6 of 6 replicates).
Variant MISQLYNMGQFAINSVA | QASLRCN | QQYDRLPLA showed 2.10 (2 of 6 replicates).
Variant KVVQSVDYESRNKQSVA | DASTRCS | QQYHRLPLS showed -0.19 (6 of 6 replicates).
Variant EFSQSGLYESTNKNSVA | GASTREW | SQYHTLPLS showed 0.83 (6 of 6 replicates).
Variant ALSGSHLYESRMKNSVA | NASTREE | QQYHRLPLS showed 0.35 (6 of 6 replicates).
Variant KWQNDSLFMGQYMNNIA | NTSLRTE | QQYYQLPLT showed 0.70 (6 of 6 replicates).
Variant KLSQSMLYESRNKNSVA | QASQRES | QQYHRLPLS showed -0.45 (6 of 6 replicates).
Variant KVSQSMGYESRNQNSVA | EASHRES | QDYHRLPLW showed 0.58 (6 of 6 replicates).
Variant KIRVNQYMFSEMESNIA | GTSVRHS | QQYFHLPLT showed 0.49 (3 of 6 replicates).
Variant HMSQVTMYGMWMRNSVA | QTSTREE | QQYDRLPLS showed 0.95 (6 of 6 replicates).
Variant KLKQSVLYESRNKNSVA | NASQRES | QQYHRLPLS showed -0.82 (6 of 6 replicates).
Variant KLSQSWWMESRNKNNVA | HASKRES | QQYHRLPLS showed 0.63 (6 of 6 replicates).
Variant IVTEAQNDNSLYTNNIA | EGENTLA | QQYFRLPLM showed 0.94 (6 of 6 replicates).
Variant TISQLMNMGQFAINSVA | QASIRNE | QQYDRLPLM showed 0.48 (6 of 6 replicates).
Variant KLQQSDLYESRNKNSVA | NASERES | QQYHRLPLS showed 0.45 (6 of 6 replicates).
Variant SIYDATGMESRNKNPIA | DVSTRPD | QQYHRLPLS showed -0.11 (6 of 6 replicates).
Variant TVSQVTEMLSRNKNSVA | DMNTRES | QQYDRLPLS showed -0.02 (6 of 6 replicates).
Variant KVSEFMKGLMMRKDSIA | DNTTRGQ | QQYDRLPLS showed 2.32 (6 of 6 replicates).
Variant KSSQSVLYESRNKNSVA | WASTRES | QQYHELPLP showed 1.90 (1 of 6 replicates).
Variant ALSQNGFQQHGMRDSIA | HSDQRLA | QQYYHLPLA showed 0.30 (6 of 6 replicates).
Variant KQSQEELYESRNKNSVA | DASTRES | QQYHRLPLS showed -0.20 (6 of 6 replicates).
Variant KSSISMLGESRNKNSVA | EASTRES | QQYHRLPLS showed 1.93 (6 of 6 replicates).
Variant TLYMGPTEARDSKHAIA | DNNERDR | QQYHRLPLY showed 1.00 (6 of 6 replicates).

Excerpt, the first 7 entries:

CDR-L1,CDR-L2,CDR-L3,"log10 Kd (nM), mean",seen in
KSSQSVLYESRNTNSVA,WASTREK,QQYHRLPLS,2.30,6/6
KIAATVLYESGNANSVA,QNSTRES,QQYHRLPLS,nd,0/6
KIFQSVLYESRQKNSVA,NASDRMS,QQYHRLPLS,0.29,6/6
HMSAVTMMGMRHRNSVA,QMTMREN,QQYDRLPLA,1.28,6/6
HLSLPWQLGHPSTNAVA,NMDVLMT,QQYSRLPLS,-0.07,2/6
KLSQMYEYESRWPNSVA,HASTREL,QQYHRLPLS,0.06,2/6
KFSQSVLYESRLKNGVA,NASTRES,QQYHRLPLS,0.12,6/6

The authors averaged sequences with at least three values out of six and counted those with two or fewer as poor binders. Of ten entries with the parent sequence, four were seen in most replicates (averages 0.34 to 2.37), three in one and three in none, so single entries are noisy. A sequence measured in both rounds can read differently, since the two assays cover different ranges.

Data: MIT Lincoln Laboratory AlphaSeq set, Li et al. 2023, doi:10.1038/s41467-023-39022-2, as distributed in FLAb.